Reference: US20090324624A1, “Chitin micro-particles as an adjuvant” (priority 2006, published 2009)

System: MAPK (p38, Erk1/2 and JNK)

methyl-β-cyclodextrin [MBCD]
phosphorylation of p38, ERK1/2 or JNK by MBCD alone (1 or 5 mM MBCD): no significant phosphorylation
levels of phosphorylated p38 and ERK1/2 in MBCD-treated vs saline-treated MØ (20 min after chitin particle stimulation): markedly increased
